Source: PMC6403082 (International Journal of Neuropsychopharmacology, 2018)

Amino acid sequences for entries named in this document (tags omitted). Residues count along the entry.
UniProt Q12879, 23-1464 R392E: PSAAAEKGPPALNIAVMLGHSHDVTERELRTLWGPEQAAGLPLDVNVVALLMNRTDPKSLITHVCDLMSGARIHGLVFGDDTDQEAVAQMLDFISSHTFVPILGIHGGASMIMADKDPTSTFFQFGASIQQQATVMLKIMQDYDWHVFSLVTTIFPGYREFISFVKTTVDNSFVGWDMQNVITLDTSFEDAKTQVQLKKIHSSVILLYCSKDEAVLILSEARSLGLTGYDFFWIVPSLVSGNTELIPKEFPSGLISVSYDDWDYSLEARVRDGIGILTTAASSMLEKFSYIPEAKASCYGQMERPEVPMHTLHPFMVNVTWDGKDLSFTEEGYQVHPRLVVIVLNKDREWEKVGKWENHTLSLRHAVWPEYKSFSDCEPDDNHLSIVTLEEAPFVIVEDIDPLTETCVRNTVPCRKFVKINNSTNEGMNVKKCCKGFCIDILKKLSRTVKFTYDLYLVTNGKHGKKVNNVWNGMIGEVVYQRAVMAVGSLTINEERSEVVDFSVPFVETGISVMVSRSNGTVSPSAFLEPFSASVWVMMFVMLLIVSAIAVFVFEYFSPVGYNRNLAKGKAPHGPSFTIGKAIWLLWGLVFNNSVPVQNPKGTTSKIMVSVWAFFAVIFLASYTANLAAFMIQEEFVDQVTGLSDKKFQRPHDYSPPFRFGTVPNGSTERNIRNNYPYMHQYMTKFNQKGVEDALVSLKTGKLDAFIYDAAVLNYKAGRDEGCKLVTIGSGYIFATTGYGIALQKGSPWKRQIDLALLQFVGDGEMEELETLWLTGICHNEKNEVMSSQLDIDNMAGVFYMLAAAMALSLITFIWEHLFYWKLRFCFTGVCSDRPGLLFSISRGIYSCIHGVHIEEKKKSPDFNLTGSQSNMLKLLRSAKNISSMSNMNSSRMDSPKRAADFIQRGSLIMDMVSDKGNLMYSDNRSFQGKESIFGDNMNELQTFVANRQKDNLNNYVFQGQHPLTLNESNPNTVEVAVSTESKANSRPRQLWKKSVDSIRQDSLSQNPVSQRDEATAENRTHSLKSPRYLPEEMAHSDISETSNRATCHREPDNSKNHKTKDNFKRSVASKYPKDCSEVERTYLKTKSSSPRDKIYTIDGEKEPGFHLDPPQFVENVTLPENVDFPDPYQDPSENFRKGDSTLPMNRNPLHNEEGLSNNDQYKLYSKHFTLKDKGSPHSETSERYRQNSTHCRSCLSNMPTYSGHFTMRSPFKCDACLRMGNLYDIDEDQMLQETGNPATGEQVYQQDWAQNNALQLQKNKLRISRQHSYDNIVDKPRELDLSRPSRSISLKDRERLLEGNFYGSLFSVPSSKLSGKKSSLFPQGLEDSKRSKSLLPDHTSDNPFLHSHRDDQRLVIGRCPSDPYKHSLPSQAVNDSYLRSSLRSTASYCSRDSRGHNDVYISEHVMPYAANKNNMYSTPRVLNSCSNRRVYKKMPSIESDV
UniProt Q12879, 23-1464: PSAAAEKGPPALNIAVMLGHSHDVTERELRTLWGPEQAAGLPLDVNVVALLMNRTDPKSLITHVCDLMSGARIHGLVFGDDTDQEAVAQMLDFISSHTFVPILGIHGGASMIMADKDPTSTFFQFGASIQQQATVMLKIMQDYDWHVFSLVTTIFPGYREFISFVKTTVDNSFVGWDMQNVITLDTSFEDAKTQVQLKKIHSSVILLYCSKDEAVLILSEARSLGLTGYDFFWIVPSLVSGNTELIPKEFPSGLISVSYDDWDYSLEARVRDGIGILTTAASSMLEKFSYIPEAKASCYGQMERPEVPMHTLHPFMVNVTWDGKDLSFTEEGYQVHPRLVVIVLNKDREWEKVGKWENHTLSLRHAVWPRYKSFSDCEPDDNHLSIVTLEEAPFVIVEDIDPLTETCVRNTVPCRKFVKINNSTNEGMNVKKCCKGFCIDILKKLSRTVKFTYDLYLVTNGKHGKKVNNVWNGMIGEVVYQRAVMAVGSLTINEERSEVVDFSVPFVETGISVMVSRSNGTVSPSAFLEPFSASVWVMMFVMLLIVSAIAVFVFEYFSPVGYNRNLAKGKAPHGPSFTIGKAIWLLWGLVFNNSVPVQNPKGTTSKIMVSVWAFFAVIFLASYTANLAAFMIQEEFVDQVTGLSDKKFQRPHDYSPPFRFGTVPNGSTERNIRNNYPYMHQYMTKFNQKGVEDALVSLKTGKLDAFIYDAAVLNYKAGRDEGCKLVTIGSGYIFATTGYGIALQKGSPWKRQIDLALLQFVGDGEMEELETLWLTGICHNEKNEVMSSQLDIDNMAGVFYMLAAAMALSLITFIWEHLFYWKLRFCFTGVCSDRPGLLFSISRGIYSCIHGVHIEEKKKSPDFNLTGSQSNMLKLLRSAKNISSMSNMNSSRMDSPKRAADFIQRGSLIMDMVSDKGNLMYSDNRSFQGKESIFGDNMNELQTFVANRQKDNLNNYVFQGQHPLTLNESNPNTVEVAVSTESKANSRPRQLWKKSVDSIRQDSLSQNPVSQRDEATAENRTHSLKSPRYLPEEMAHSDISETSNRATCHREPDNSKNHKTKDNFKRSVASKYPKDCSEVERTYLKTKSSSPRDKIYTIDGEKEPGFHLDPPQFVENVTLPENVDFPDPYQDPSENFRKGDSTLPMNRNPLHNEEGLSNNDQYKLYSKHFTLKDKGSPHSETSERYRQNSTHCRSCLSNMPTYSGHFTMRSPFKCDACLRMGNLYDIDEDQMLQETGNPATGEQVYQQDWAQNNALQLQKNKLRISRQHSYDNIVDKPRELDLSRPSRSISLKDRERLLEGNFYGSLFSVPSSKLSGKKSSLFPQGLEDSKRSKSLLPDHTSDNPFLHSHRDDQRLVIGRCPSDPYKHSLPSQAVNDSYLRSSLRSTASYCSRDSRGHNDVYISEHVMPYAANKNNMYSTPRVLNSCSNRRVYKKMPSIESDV
UniProt Q13224, 27-1484: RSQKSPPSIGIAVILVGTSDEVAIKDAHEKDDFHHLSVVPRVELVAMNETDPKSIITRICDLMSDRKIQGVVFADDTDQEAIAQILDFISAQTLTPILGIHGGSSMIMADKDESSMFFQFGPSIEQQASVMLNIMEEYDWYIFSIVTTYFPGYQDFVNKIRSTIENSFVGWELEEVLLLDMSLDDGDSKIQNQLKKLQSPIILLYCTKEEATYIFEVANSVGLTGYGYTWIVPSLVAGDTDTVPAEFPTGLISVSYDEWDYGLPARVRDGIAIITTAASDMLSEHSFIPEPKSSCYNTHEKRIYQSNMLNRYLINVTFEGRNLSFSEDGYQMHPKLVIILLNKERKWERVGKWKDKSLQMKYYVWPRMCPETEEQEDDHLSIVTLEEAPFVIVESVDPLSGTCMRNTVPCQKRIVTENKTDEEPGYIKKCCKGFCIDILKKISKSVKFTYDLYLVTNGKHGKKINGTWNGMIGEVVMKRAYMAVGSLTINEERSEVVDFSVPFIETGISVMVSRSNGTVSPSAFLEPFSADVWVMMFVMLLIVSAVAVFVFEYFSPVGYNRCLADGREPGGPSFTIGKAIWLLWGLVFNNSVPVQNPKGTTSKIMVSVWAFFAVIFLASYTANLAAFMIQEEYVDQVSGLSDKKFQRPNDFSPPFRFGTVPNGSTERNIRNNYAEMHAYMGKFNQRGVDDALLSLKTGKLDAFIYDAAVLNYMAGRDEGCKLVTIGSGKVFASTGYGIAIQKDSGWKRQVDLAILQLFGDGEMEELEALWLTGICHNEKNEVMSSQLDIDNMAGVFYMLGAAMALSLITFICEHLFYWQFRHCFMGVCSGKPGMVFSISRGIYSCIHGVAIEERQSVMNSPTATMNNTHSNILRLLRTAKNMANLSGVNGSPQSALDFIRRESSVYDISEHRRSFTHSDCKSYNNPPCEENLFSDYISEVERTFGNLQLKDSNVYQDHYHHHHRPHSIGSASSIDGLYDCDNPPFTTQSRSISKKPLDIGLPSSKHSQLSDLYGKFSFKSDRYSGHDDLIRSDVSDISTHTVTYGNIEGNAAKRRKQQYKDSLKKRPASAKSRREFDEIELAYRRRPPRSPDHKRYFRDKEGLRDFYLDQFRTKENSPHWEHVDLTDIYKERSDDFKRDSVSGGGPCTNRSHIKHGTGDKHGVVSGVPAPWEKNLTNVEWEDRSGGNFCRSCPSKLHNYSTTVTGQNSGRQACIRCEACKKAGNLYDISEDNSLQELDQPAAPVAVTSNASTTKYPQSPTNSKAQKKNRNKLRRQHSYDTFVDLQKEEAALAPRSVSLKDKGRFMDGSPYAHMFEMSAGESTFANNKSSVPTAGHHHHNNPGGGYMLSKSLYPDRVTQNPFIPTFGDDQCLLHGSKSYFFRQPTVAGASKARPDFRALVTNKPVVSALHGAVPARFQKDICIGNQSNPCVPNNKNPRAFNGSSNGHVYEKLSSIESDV

What was measured:
Type in all cases: cell-based
[1] = molecular target: mutant NR2A (R392E) NMDAR in HEK293 cells (Homo sapiens, UniProt Q05586+Q12879, R392E); assay: Intracellular calcium response in HEK cells, NR2A R392E
[2] = molecular target: wild-type NR2B NMDAR in HEK293 cells (Homo sapiens, UniProt Q05586+Q13224)
[3] = molecular target: wild-type NR2A NMDAR in HEK293 cells (Homo sapiens, UniProt Q05586+Q12879)

In the case of `N[C@@H](CCC(=O)O)C(=O)O` [glutamate], the “Receptor activation, % of 1 μM glutamate, mutant NR2A (R392E)” value [1] is reported as 29.4 ± 3.0%, the “Receptor activation, % of 1 μM glutamate, wild-type NR2B” value [2] is reported as 22.3 ± 2.6% and the “Receptor activation, % of 1 μM glutamate, wild-type NR2A” value [3] is reported as 32.8 ± 3.5 % of 1 μM glutamate.
